Read-outs that look alike come from different tables or passages of the source.
Target: Beta Secretase enzyme (BACE1) (Homo sapiens, UniProt P56817)
Assay: In vitro enzymatic BACE FRET assay
Type: biochemical
Experimental: In Vitro Enzymatic BACE FRET (Fluorescence Resonance Energy Transfer) Assay (Enzyme Assay Data in the Example Tables I and II)
The assay buffer used in this screen is 0.05 M acetate, pH 4.2, 10% DMSO final, 100 uM genapol (which is a nonionic detergent, below its Critical Micelle Concentration). […] This assay is effectively started by the addition of FRET substrate (50 nM) and the combination is incubated for one hour. The FRET assay is terminated with by addition of Tris buffer, which raises the pH to neutrality, and the fluorescence is determined. The FRET substrate is a peptide with commercially available fluorophore and quencher, on opposite sides of the BACE cleavage site. Proteolytic cleavage of the FRET substrate releases quenching of fluorescence (excitation […] and […]).

Protein sequences, listed by entry. Tags and fused reporters are not part of them. Residues count along the entry.
UniProt P56817, 46-501: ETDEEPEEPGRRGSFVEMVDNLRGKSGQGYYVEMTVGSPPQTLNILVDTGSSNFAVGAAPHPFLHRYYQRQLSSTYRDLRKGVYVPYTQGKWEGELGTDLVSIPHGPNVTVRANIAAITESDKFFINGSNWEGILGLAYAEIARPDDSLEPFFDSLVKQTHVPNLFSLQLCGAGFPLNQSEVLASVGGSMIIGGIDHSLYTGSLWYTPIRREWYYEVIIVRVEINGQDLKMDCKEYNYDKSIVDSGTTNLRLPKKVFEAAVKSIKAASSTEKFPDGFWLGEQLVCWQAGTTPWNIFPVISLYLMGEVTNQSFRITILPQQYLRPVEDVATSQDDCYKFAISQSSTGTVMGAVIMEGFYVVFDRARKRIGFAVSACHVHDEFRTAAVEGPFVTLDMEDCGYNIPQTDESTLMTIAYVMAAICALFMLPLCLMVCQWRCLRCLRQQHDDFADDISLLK

Structure (SMILES) | IC50 | IC50 (average IC50, enzyme assay)
COc1cnc(C(=O)Nc2ccc(F)c([C@]3(C)CSCC(N)=N3)c2)cn1 [Example 43, (R)—N-(3-(5-amino-3-methyl-3,6-dihydro-2H-1,4-thiazin-3-yl)-4-fluorophenyl)-5-methoxypyrazine-2-carboxamide] | 23.6 nM | 
CC1(C)C(N)=N[C@@]2(c3cc(Nc4nccc5cc(Cl)cnc45)ccc3F)C[C@H]2S1(=O)=O [Example 183, (1R,6R)-4-amino-6-(5-((3-chloro-1,7-naphthyridin-8-yl)amino)-2-fluorophenyl)-3,3-dimethyl-2-thia-5-azabicyclo[4.1.0]hept-4-ene 2,2-dioxide] |  | 3.05 nM

Reference: patent US20140107109A1, “AMINO-DIHYDROTHIAZINE AND AMINO-DIOXIDO DIHYDROTHIAZINE COMPOUNDS AS BETA-SECRETASE ANTAGONISTS AND METHODS OF USE” (Amgen Inc., priority 2012, published 2014)
